# From patent publication US20190055316A1 (published 2019)
# Key:
# Assay in all cases: on-cell affinity (flow cytometry); transfected 293T cells
# aMSLN 2.69.2HL-BiTE = target: aMSLN 2.69.2HL-BiTE
# aMSLN 2.37HL-BiTE = target: aMSLN 2.37HL-BiTE
# aMSLN 1.33HL-BiTE = target: aMSLN 1.33HL-BiTE
binder,measurement,setting,value
Cyno MSLN (other) MALPMARPLSGSCGTPALGSLLFLLFSLGWVQPSRVLAGETRQEAAPLDGILTNAPDIASLSPRQLLGFTCVEVSGLSTELVQELAVALGQKNVKLSAEQLRCLAHRLSEPPEDLDALPLDLLLFLKQASVQGVRGSLLSEADVRALGGLACDLPGRFVAESAEVVLPRLVRCLGPLDQDQQEAARAALQRGGPPYGPPSTWSISTLDDLQSLLPVLGQPVIHSIPQGILAAWRQRSSRDPSWQQPEQTVLRPRFRRDVERTTCPPEKEVHEIDENLIFYKKRELEACVDAALLAAQMDRVDAIPFTYEQLDVLKHKLDELYPQGYPESVIRHLGHLFLKMSPEDIRKWNVTSLETLKALLKVSKGHEMSAQVATLIDRVVVGRGQLDKDTADTLTAFCPGCLCSLSPERLRSVPPSVIGAVRPQDLDTCGPRQLDVLYPKARLAFQNMSGSEYFVKIRPFLGGAPTEDLKALSQQNVSMDLATFMKLRREAVLVGRAGGGASGGGDNRGREGV,Kd,aMSLN 2.69.2HL-BiTE,2.19 nM
same,Kd,aMSLN 2.37HL-BiTE,11.7 nM
same,Kd,aMSLN 1.33HL-BiTE,8.15 nM
